Laboratory results published in US9481646B2, “Low calcemic, highly antiproliferative, analogs of calcitriol” (The Johns Hopkins University, priority 2007, dated 2016).

Legend:
[1] = in vivo calciuric activity, calcium levels in rat urine; conditions: relative activity (A = 1)
[2] = tested on: murine keratinocytes; assay: antiproliferative activity in murine keratinocytes (standard in vitro protocol); type: cell-based
[3] = tested on: human CYP24; conditions: HPK1a-ras cells, 8 hours, relative to calcitriol = 100

For C=C1/C(=C\C=C2/CCC[C@]3(C)[C@@H]([C@H](C)COCc4ccccc4)CC[C@@H]23)C[C@@H](O)C[C@@H]1O [Analog 1h], the “Calciuria Activity Compared to 1” value [1] was less than 0.02.
With C=C1/C(=C\C=C2/CCC[C@]3(C)[C@@H]([C@H](C)COCC#CC(C)(C)C)CC[C@@H]23)C[C@@H](O)C[C@@H]1O [Analog 1f] the “antiproliferative activity relative to 1a” value [2] was “approximately ten times more antiproliferative than 1a”, the “times more antiproliferative than the natural hormone A” value [2] was “approximately 40 times” and the “Calciuria Activity Compared to 1” value [1] was less than 0.02.
For C=C1/C(=C\C=C2/CCC[C@]3(C)[C@@H]([C@H](C)COCC(=C)C4(C)CCCCC4)CC[C@@H]23)C[C@@H](O)C[C@@H]1O [Analog 1c], the “Calciuria Activity Compared to 1” value [1] was less than 0.02.
With C=C1/C(=C\C=C2/CCC[C@]3(C)[C@@H]([C@H](C)COCC4=CCCCC4(C)C)CC[C@@H]23)C[C@@H](O)C[C@@H]1O [Analog 1d] the “Relative Fold Induction of CYP24 by 100 nM of Compound” value [3] was 73.8%.
In the case of C=C1/C(=C\C=C2/CCC[C@]3(C)[C@@H]([C@H](C)COCC(=C)C(C)(C)C)CC[C@@H]23)C[C@@H](O)C[C@@H]1O [Analog 1a], the “Calciuria Activity Compared to 1” value [1] is reported as less than 0.02.
